Test system: H22 liver cancer tumor tissue
Details: H22 liver cancer tumor-bearing mice, tumors taken after killing, small animal fluorescence imaging

## modified pectin-PEG8-VAPABC-adriamycin [pectin-adriamycin conjugate]
  adriamycin fluorescence in tumor tissue: strong adriamycin fluorescence
